Reference: ChEMBL document CHEMBL1156601, “Aminomethylpiperazines as selective urotensin antagonists” (Bioorg Med Chem Lett, 2008)

Amino acid sequences for entries named in this document (tags omitted). A change or cut given only in a name is not applied to a line headed by its entry.
UniProt P41145: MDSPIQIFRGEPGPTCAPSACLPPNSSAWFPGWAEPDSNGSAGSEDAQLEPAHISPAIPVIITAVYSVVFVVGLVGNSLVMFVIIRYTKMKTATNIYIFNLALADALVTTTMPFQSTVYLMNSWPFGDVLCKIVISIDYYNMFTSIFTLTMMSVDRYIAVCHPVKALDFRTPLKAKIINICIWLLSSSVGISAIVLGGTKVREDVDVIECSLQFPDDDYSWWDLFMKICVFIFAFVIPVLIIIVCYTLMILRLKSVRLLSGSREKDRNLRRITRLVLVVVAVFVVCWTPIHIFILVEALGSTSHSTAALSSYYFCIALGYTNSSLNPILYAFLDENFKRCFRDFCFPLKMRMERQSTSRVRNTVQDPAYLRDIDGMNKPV

Molecular target: Kappa-type opioid receptor (Homo sapiens, UniProt P41145)
Experiment: Agonist activity at human kappa opioid receptor expressed in CHO-K1 cells by [35S]GTPgamma binding assay

Compound `O=C(Cn1c(C(F)(F)F)nc2ccccc21)N1CCN(c2ccccc2)CC1CN1CCCC1` (stereo unspecified) has an EC50 of 4 nM.
